Test [1] deals with T1, Histone-lysine N-methyltransferase EHMT2 (Homo sapiens, UniProt Q96KQ7).
T1 sequence (Q96KQ7 whole entry): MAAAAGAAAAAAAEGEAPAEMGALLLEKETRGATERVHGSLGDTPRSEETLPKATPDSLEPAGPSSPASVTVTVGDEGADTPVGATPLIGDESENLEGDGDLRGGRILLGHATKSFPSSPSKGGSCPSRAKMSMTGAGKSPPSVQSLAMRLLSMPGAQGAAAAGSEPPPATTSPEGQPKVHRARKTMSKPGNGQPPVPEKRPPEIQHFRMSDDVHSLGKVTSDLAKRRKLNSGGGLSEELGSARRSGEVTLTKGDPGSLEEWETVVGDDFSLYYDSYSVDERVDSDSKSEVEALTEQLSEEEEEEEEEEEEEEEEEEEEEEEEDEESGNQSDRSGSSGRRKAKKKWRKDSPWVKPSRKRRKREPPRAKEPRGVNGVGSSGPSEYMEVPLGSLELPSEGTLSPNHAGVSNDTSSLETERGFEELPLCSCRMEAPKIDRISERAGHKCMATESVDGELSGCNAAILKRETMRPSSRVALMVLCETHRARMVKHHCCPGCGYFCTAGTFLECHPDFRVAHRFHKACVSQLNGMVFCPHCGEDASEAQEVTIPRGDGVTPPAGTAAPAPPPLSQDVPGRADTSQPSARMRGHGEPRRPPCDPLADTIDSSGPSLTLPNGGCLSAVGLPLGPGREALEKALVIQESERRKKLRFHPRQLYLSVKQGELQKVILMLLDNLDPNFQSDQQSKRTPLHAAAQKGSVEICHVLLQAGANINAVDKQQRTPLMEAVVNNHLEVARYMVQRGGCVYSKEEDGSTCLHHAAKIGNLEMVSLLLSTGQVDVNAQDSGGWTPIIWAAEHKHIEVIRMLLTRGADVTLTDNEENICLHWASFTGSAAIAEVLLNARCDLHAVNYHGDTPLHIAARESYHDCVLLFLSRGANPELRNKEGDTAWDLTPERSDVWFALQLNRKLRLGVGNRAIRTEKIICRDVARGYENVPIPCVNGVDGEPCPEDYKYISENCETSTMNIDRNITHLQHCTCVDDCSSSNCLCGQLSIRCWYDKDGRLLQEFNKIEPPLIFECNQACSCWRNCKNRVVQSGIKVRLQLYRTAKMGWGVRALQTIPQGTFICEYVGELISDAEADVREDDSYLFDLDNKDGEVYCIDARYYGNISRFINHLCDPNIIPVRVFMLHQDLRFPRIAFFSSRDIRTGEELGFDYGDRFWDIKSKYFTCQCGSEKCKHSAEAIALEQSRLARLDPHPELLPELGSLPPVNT

For test [2], the target named is T1, Histone-lysine N-methyltransferase EHMT2. The test is described as follows: Inhibition of G9a by Alpha screen assay. In general terms: Bead proximity is the source of the signal in Alpha formats.

The structures appear in SMILES notation.

Take `COc1cc2nc(N3CCN(C)CC3)nc(NC3CCN(C)CC3)c2cc1OC`: the figures for the half-maximal inhibitory concentration (IC50) in test [1] and in test [2] were 680 nM and 200 nM, respectively.
As to `COc1cc2nc(N3CCCN(C)CC3)nc(NC3CCN(C)CC3)c2cc1OC`, in test [2], the concentration for half-maximal inhibition (IC50) stood at 230 nM.

One may read the IC50 as the midpoint of a concentration-inhibition curve.

(Values after ChEMBL document CHEMBL1154694, “Discovery of a 2,4-diamino-7-aminoalkoxyquinazoline as a potent and selective inhibitor of histone lysine methyltransferase G9a” (J Med Chem, 2009).)
